Chains of the proteins cited; added tags and fusions are not shown. Residues count along the entry.
UniProt G3V928, 20-3944 limits assumed: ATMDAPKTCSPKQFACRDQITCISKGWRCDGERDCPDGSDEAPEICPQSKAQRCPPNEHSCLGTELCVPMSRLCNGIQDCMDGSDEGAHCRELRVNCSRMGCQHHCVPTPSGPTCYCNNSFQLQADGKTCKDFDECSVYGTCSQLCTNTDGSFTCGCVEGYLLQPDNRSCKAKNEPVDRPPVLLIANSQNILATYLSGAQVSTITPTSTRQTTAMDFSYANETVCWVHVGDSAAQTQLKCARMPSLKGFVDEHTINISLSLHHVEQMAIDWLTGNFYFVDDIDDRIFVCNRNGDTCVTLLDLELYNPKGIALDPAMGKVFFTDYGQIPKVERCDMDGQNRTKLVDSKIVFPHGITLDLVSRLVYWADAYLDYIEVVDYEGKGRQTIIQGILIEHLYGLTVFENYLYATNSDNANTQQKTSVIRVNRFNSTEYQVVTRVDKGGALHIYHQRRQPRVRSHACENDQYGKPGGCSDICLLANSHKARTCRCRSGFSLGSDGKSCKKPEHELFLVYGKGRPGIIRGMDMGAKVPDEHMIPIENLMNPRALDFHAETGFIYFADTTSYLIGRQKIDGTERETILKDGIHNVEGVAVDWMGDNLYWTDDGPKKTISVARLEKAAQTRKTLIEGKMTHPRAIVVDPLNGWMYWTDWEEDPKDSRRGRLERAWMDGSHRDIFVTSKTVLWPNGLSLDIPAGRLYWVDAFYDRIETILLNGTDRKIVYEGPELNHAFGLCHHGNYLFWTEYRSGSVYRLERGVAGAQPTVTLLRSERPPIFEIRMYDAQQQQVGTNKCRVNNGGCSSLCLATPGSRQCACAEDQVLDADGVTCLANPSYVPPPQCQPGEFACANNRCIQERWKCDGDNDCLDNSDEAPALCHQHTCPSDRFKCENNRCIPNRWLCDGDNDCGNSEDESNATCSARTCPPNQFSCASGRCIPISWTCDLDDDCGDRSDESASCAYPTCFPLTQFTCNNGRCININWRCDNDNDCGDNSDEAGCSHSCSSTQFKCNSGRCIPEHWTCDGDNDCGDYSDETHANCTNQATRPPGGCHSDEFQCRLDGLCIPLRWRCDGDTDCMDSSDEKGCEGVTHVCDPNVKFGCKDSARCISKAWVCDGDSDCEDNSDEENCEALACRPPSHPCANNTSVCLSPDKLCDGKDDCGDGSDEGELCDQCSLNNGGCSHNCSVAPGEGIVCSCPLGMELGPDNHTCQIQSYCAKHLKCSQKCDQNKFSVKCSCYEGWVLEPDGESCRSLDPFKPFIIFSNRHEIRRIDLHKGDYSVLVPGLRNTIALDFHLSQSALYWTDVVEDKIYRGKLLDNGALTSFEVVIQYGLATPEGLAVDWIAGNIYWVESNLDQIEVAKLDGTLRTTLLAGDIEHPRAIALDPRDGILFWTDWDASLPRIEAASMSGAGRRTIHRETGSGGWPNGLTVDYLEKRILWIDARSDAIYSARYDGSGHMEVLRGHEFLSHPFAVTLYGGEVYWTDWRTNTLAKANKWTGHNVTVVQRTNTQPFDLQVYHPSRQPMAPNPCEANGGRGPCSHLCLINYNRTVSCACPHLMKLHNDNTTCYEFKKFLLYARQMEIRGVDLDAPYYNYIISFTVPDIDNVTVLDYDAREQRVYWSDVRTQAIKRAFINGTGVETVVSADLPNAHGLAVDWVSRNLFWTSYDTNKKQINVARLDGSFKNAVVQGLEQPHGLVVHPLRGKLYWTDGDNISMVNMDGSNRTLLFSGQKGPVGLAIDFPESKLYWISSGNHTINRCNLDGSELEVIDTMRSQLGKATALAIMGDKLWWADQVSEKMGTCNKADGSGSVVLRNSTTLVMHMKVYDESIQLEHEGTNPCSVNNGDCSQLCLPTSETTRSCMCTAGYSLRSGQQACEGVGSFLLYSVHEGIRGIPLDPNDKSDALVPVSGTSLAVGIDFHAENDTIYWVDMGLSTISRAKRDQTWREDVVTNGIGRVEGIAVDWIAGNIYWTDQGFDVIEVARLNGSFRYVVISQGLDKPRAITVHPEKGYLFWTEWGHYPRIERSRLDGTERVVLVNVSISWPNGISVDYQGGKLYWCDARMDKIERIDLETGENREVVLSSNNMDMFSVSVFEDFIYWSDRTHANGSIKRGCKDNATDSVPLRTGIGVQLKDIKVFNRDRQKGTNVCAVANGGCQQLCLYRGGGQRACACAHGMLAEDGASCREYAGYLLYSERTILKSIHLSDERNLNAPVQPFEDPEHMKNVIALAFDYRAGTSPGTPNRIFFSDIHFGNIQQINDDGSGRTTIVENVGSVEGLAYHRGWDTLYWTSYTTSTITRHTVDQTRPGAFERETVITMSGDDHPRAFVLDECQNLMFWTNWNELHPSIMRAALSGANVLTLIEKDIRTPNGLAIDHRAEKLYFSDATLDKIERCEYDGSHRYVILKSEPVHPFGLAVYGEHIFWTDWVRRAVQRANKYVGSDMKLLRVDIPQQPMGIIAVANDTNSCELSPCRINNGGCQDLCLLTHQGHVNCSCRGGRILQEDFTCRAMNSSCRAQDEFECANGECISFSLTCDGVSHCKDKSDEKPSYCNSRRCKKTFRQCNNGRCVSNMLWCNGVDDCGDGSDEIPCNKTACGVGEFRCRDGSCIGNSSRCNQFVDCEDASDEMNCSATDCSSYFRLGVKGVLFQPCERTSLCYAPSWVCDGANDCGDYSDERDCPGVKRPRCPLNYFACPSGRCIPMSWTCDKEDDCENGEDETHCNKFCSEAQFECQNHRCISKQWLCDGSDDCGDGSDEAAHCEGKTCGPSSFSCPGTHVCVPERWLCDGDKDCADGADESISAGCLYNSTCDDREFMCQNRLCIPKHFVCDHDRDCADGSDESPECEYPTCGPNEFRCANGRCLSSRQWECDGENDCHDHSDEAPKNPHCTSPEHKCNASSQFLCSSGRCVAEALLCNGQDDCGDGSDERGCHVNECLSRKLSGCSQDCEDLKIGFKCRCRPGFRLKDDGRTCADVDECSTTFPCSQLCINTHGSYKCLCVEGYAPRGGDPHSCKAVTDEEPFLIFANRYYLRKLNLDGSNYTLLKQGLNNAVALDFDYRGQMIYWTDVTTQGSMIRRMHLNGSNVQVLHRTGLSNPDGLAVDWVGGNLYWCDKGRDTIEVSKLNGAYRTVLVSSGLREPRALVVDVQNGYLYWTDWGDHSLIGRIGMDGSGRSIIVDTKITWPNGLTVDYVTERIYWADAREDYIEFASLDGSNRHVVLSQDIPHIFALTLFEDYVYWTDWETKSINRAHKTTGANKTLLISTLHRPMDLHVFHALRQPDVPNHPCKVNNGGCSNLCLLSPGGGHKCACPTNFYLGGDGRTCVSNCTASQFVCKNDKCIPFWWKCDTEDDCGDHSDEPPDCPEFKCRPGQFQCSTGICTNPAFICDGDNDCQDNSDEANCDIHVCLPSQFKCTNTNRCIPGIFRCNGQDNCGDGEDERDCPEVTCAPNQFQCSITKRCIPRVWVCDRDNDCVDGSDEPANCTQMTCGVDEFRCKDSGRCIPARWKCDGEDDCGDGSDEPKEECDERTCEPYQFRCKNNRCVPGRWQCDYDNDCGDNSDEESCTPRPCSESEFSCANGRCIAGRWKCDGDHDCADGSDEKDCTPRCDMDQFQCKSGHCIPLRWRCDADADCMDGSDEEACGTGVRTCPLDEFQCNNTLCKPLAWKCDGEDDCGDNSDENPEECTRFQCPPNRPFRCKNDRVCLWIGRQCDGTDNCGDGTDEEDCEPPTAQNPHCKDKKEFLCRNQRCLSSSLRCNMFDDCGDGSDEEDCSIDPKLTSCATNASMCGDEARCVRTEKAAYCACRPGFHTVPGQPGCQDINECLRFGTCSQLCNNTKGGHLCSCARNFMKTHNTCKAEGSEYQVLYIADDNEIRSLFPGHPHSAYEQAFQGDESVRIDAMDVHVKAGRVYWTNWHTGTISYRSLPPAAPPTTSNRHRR
UniProt G3V928, 3945-4545 partner limits assumed: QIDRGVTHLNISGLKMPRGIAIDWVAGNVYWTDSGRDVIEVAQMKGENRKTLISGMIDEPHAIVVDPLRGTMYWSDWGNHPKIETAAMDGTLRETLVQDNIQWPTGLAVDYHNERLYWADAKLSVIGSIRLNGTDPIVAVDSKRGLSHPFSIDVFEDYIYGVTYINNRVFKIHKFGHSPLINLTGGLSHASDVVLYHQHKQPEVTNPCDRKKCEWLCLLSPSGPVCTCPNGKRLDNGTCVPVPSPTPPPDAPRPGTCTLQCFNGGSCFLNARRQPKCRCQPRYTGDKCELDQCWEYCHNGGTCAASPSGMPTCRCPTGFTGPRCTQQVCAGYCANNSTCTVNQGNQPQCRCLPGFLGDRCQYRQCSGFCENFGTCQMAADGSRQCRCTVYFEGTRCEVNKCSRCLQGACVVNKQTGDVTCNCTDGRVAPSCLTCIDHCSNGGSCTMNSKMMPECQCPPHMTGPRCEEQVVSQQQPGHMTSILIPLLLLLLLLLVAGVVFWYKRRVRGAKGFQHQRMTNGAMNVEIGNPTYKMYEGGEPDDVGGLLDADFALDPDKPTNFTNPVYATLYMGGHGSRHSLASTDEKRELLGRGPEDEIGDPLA

According to patent publication US20230406906A1, “SERPIN PEPTIDES AND METHODS OF USING THE SAME” (SERPIN PHARMA, LLC, priority 2022, published 2023):

How the values were obtained:
[1] = test system: primary adult rat DRG neurons; test: Neurite outgrowth and survival in primary cultures of adult DRG neurons; type: cell-based
Description: Neurite outgrowth in primary cultures of adult DRG neurons: Primary DRGs neurons were isolated from adult male Sprague Dawley rats and cultured as previously described for mice with modifications.^53 The DRGs were stripped of their roots and collected in Hanks Buffered Salt Solution (HBSS) on ice. DRGs were enzymatically digested and approximately 4000 DRG neurons were plated in each well of a 12-well tissue culture plate (Thermo Fisher Scientific, Waltham, MA, USA). All DRG neurons were cultured at 37° C. in 5% CO2 for 54 h in DMEM/F12 containing 2% B27 and 1% FBS with vehicle or S[…] (0-500 ng/ml) added every 24 h. Primary cultured DRG neurons were imaged by phase contrast and the viability of cells was assessed by Trypan blue. […] DRG neurons were imaged at 20× and 40× manually, and the longest neurite length per cell was measured in 11 images from multiple wells and separate experiments. […] Quantification was performed in a blinded manner. For all neurite outgrowth measurements, at least 6 individual experiments were performed in duplicate.

LRP1 = target: T1, LRP1 (Rattus norvegicus, UniProt G3V928); test: Cell signaling analysis in PC12 cells (phospho-ERK1/2, phospho-Akt immunoblot); type: cell-based
T1 construct: host or cells: rat PC12 cells
Description: Cell signaling analysis: Rat PC12 cells were purchased from ATCC (CRL-1721). PC12 cells were maintained in high glucose DMEM (Gibco, USA) containing 10% heat-inactivated FBS (Gibco, USA), 5% HyClone heat-inactivated horse serum (Cytiva, USA), penicillin (100 units/ml) and streptomycin ([…]) in 6-well plates that were pre-coated with 0.01 mg/ml type IV collagen (Sigma-Aldrich, St. Louis, MO, USA). Cells were transferred to serum-free medium (SFM) 4 h prior to adding effectors, and then treated with SP163M (2.4, 24 or 240 nM); EI-tPA (12 nM), NGF (0.36 nM), or vehicle (PBS) for 10 min. In some cases, cells were pre-incubated with the competitive antagonist of LRP1, GST-RAP (150 nM) for 15 min or electroporated using the Rat Neuron Nucleofector Amaxa Kit (Lonza Biosciences) and incubated with siRNA to silence LRP1 expression (siLRP1; M-094191-01-0010, Dharmacon) for 48 h. Control cells were transfected with non-targeting control (NTC) siRNA (NTC; D-001810-10-05, Dharmacon). […] Equal amounts of protein from cell lysates (20 μg), as determined by BCA Protein Assay (ThermoFisher Scientific, Waltham, MA, USA), were subjected to 10% SDS-PAGE and electro-transferred to nitrocellulose membranes. […]

CD11b = test: Immunoblot of injured sciatic nerve two days after PNL, CD11b; type: in vivo, mice; conditions: 2 μg/g, vs vehicle
Description: (§1) Neuropathic pain model: Mice (n=30) were randomly assigned to two different groups: SP163M (2 μg/g; s.c. 100 μl) and vehicle (H20 s.c. 100 μl). Mice were treated 1 h prior to partial nerve ligation (PNL) and then daily at least 1 h prior to behavior testing for 2 weeks. PNL studies were performed as previously disclosed^59 and adapted for mice.^57 Male mice were anesthetized with 3% isoflurane (Vetone, USA) in 1.5 L/min oxygen (Praxair, USA) and maintained with 2.5% isoflurane. An incision was made along the long axis of the femur. […] Filaments were presented in a consecutive fashion either ascending or descending using the up-down method as previously disclosed^60 and modified for mice.^57,61 The filament that caused paw withdrawal 50% of the time (the 50% PWT) was determined. […]
(§2) Immunoblots of sciatic nerve: Sciatic nerves were harvested 2 days after PNL to identify early molecular and cellular changes. […] Nerves were lysed in RIPA buffer and equal amounts of protein (20 μg) from nerves lysates, as determined by BCA Protein Assay (Bio-Rad, Hercules, CA, USA), were subjected to 10% SDS-PAGE and electro-transferred to nitrocellulose membranes. […] Primary antibodies were detected with HRP-conjugated species-specific secondary antibodies (Cell Signaling Technology, Danvers, MA, USA; cat #7076S or 4S; 1:5000). […]

TLR4 = test: Immunoblot of injured sciatic nerve two days after PNL, TLR4; type: in vivo, mice; conditions: 2 μg/g
Description: as §1, §2

## CCCC[C@H](NC(=O)[C@H](CC(C)C)NC(=O)[C@H](Cc1ccccc1)NC(=O)[C@@H](NC(=O)[C@H](Cc1ccccc1)NC(=O)[C@@H]1CCCN1C(=O)[C@H](CCCCN)NC(=O)[C@H](CC(N)=O)NC(=O)[C@H](Cc1ccccc1)NC(=O)[C@H](CCCCN)NC(=O)[C@@H](NC(C)=O)C(C)C)C(C)C)C(=O)N[C@H](C(=O)N[C@@H](CCC(=O)O)C(=O)N[C@@H](CCC(N)=O)C(=O)N[C@@H](CC(N)=O)C(=O)N[C@H](C(=O)N[C@@H](CCCCN)C(N)=O)[C@@H](C)O)[C@@H](C)CC [SP163M, Ac-VKFNKPFVFLNIeIEQNTK-NH2]
[1]; 240 nM, 54 h
  maximum neurite length (βIII-Tubulin immunofluorescence): significantly increased maximum neurite length compared to controls
[1]; within 48 h, vs untreated controls
  neuronal survival and neurite sprouting (phase contrast): induced greater neuronal survival and neurite sprouting compared to untreated controls
LRP1; 10 min, 24 or 240 nM, RAP 150 nM pretreatment 15 min
  activation of Akt and ERK1/2, with and without RAP: activated Akt and EKR1/2 in PC12 cells after 10 min that was blocked by the addition of the 39 kDa LRP1 antagonist, RAP
LRP1; 48 h after transfection
  activation of ERK1/2 in cells transfected with LRP1-specific siRNA: ERK1/2 was not activated
CD11b
  reduction of CD11b levels in injured sciatic nerve (densitometry): 10 fold
TLR4
  TLR4 upregulation in injured sciatic nerve (densitometry): completely blocked the upregulation of TLR4
